Where a SMILES comes first, the peptide text is derived from it. Bridges are numbered along the chain shown (N, C = ends). [ ]: non-standard residue; d: D form. S5 = C=CCCC[C@](C)(N)C(=O)O; Nle = CCCC[C@H](N)C(=O)O
Test system: leukemia cell lines tested (Jurkat, REH, MV4;11, SEMK2, RS4;11)
Experiment: MTT assay, panel statement
Conditions: same dose range as SAHB3BIDA

## CCCC[C@H](NC(=O)[C@]1(C)CCCC=CCCC[C@](C)(NC(=O)[C@H](C)NC(=O)[C@H](CC(C)C)NC(=O)[C@H](Cc2c[nH]cn2)NC(=O)[C@H](CCCNC(=N)N)NC(=O)[C@H](C)NC(=O)[C@@H](NC(=O)[C@H](CC(N)=O)NC(=O)[C@H](CCCNC(=N)N)NC(=O)[C@@H](NC(=O)[C@@H](NC(=O)[C@H](CC(=O)O)NC(=O)[C@H](CCC(=O)O)NC(C)=O)[C@@H](C)CC)[C@@H](C)CC)[C@@H](C)CC)C(=O)N[C@@H](C(C)C)C(=O)N[C@@H](CCC(=O)O)C(=O)N[C@@H](CC(=O)O)C(=O)N1)C(=O)N[C@@H](CC(=O)O)C(=O)N[C@@H](CCCNC(=N)N)C(=O)N[C@@H](CO)C(=O)N[C@H](C(=O)N[C@@H](Cc1c[nH]c2ccccc12)C(N)=O)[C@@H](C)CC [SAHB3BID(G→E)A] (Ac-EDIIRNIARHLA[S5]VED[S5][Nle]DRSIW-NH2; staple 13-17; N-terminus assumed)
  metabolic arrest, in words: essentially no effect
